This assay has as its system HCoV-NL63. Briefly: rNTP competitive inhibition assay. Format: cell-based. Particulars: VV116 2 μM or HS 300 μg/mL with different concentrations of rNTP; 24 h post-infection.

Consider heparan sulfate, for which the “Effect of added rNTP on anti-coronavirus activity (NP Western blot)” value is “no effect”.

The record behind these values is PMC10748125 (Viruses, 2023).
